Experimental findings from patent US12421212B2, “Substituted benzenecarboxamides as IL-17A modulators” (DiCE Alpha, Inc., priority 2019, dated 2025) are described below.

The chains behind the UniProt entries cited, without tags or fusion partners. Residues count along the entry.
UniProt Q16552, 24-155 limits assumed: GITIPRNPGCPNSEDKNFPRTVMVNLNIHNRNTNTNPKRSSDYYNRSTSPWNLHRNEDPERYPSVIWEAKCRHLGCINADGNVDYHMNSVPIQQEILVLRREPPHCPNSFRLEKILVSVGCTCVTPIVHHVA

This test deals with IL-17A/A (Homo sapiens, UniProt Q16552). Briefly: IL-17A/A HEK-Blue Cell Assay. The conditions noted are these: HEK-Blue IL-17A reporter cell line, SEAP readout at A630, 20 hours incubation with IL-17A/A; top concentration 10 uM, 1 uM or 0.3 uM.
For `CCn1nccc1C(=O)N[C@H](C(=O)Nc1ccc([C@H](C)[C@@H](NC(=O)c2cnc(C)s2)C(=O)N2CCN(C)CC2)cc1F)C1CCCCC1`, the “IL-17A/A inhibition (pIC50)” value is reported as “C (7>C≥5)”.

As to `CCn1nccc1C(=O)N[C@H](C(=O)Nc1ccc(C[C@@H](NC(=O)NC2CC2)C(=O)N2CCN(C)CC2)cc1F)C1CCCCC1`, the “IL-17A/A inhibition (pIC50)” value is recorded as “C (7>C≥5)”.

Take `C[C@@H](c1ccc(NC(=O)[C@@H](NC(=O)C(F)(F)c2cccc(C#N)c2)C2CCCCCC2)c(F)c1)[C@@H](NC(=O)c1ccnn1C1CCN(C)CC1)C(=O)N1CCOCC1`: the “IL-17A/A inhibition (pIC50)” value was “A (compounds having a pIC50 of greater than or equal 8 as A)”.

Turning to `[2H]C([2H])([2H])N1CCN(C(=O)[C@H](NC(=O)CC)[C@@H](C)c2ccc(NC(=O)[C@@H](NC(=O)c3nonc3CC)[C@H]3CC[C@H](C)CC3)c(F)c2)CC1`, the “IL-17A/A inhibition (pIC50)” value is on record as “B (8>B≥7 as B)”.

Regarding `CCc1nocc1C(=O)N[C@H](C(=O)Nc1ccc([C@H](C)[C@@H](NC(=O)c2cncs2)C(=O)N2CCN(C)CC2)cc1F)C1CCCCCC1`, the “IL-17A/A inhibition (pIC50)” value is “A (compounds having a pIC50 of greater than or equal 8 as A)”.

On to `CC(C)n1nccc1C(=O)N[C@H](C(=O)Nc1ccc([C@H](C)[C@@H](NC(=O)c2cnns2)C(=O)N2CCN(C)CC2)cc1)C1CCCCCC1`, for which the “IL-17A/A inhibition (pIC50)” value is “A (compounds having a pIC50 of greater than or equal 8 as A)”.

In the case of `CCc1nonc1C(=O)N[C@H](C(=O)Nc1ccc([C@H](C)[C@@H](NC(=O)N(C)C2CC2)C(=O)N2CCN(C)C(C)(C)C2)cc1F)[C@H]1CC[C@H](C)CC1`, the “IL-17A/A inhibition (pIC50)” value is “A (compounds having a pIC50 of greater than or equal 8 as A)”.

Consider `CCC(=O)N[C@@H](C(=O)N1CCN(C)CC1)[C@@H](C)c1ccc(NC(=O)C(NC(=O)c2ccnn2CC)C(CC)c2ccc(Cl)cc2)c(F)c1` (single isomer, unassigned), for which the “IL-17A/A inhibition (pIC50)” value is recorded as “A (compounds having a pIC50 of greater than or equal 8 as A)”.
